# Reference: PubChem BioAssay AID461 (SRMLSC, 2006)
# Protein sequences, listed by entry. Tags and fused reporters are not part of them.
# UniProt P04626, whole entry: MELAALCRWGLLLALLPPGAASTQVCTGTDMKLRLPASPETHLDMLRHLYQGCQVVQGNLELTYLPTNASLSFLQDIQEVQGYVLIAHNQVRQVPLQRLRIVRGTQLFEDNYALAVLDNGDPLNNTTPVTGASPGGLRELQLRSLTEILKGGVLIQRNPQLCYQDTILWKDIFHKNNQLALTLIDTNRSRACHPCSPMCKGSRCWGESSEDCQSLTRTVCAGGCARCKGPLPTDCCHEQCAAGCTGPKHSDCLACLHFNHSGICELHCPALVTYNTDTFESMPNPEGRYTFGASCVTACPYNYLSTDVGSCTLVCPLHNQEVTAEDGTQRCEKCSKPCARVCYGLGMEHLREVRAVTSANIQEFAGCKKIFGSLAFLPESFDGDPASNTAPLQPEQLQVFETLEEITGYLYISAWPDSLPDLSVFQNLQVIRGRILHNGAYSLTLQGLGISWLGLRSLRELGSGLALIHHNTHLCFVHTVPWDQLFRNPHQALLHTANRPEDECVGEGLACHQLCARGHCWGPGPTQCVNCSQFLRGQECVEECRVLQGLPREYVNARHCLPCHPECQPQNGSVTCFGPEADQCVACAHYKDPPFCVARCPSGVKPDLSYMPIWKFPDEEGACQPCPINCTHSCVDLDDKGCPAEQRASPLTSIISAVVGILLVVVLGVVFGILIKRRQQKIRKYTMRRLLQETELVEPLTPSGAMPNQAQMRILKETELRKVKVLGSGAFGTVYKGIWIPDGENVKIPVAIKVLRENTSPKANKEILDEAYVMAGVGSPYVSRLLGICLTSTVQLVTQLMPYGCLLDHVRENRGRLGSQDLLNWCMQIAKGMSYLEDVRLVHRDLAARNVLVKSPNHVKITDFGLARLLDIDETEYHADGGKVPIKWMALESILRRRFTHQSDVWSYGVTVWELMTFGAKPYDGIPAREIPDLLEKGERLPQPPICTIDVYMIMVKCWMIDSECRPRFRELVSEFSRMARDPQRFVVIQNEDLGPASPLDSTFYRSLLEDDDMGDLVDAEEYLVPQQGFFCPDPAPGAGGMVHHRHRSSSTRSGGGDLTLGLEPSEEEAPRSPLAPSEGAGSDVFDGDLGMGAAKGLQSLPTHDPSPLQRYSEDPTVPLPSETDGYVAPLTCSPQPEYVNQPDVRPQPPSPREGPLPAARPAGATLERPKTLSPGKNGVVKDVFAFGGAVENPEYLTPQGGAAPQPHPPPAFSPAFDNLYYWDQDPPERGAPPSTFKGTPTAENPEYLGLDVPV
# Only a part is listed here, and it is no random draw. Some tests of the compounds listed are not included; inactive here does not mean inactive elsewhere. The source made the active and inactive calls.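 How the source made its calls: active means Her2 level under about 52% in both replicate screens, with viability over 70% of control (limit read from the data); inconclusive means Her2 under the limit in one screen only, or viability under 70%; inactive means Her2 level above the set limit.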
# Molecular target: Receptor tyrosine-protein kinase erbB-2 (Homo sapiens) (UniProt P04626)
# Test: Her2 expression decrease, cell viability multiplex – SKBR3 breast tumor cells, AlphaScreen, ATP viability, primary screen (AID 461);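 further: lower value means less Her2 protein in the cells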
# Settings: 18-24 h, at 10 µM, active compounds read low
row,Compound,Her2 level
1,O=C(OC1CN2CCC1CC2)C(CO)(c1ccccc1)c1ccccc1 (stereo unspecified),inactive: 91%
